Values of other authors in patent US10627374B2, “LC-MS configuration for purification and detection of analytes having a broad range of hydrophobicites” (COHESIVE TECHNOLOGIES INC., priority 2010, dated 2020).
Where two headings read alike, the source gives them in different places. Only a part of the results on these compounds is given; other tests are left out.

In the case of CCC(=O)N(c1ccccc1)C1CCN(CCc2ccccc2)CC1, the logP (Table 1) is listed as 4.59 and the logP (Table 2) is listed as 4.59.
